The source of these data is paper PMC10755729, “A Multiplexing Activity-Based Protein-Profiling Platform for Dissection of a Native Bacterial Xyloglucan-Degrading System” (ACS Central Science, 2023).

The chains behind the UniProt entries cited, without tags or fusion partners. Residues count along the entry.
UniProt H9KVH3, 33-395 limits assumed: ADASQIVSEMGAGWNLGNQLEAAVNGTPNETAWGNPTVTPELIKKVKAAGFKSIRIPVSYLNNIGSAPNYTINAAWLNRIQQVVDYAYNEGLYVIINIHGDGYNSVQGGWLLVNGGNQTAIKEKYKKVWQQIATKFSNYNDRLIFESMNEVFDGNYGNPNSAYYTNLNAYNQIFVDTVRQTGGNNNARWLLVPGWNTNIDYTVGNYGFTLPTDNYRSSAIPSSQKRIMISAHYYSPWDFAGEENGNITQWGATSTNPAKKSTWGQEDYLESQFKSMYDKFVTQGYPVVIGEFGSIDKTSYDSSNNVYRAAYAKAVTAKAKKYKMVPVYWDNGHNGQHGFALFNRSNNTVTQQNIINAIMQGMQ
UniProt B3PCS3, 38-570 limits assumed: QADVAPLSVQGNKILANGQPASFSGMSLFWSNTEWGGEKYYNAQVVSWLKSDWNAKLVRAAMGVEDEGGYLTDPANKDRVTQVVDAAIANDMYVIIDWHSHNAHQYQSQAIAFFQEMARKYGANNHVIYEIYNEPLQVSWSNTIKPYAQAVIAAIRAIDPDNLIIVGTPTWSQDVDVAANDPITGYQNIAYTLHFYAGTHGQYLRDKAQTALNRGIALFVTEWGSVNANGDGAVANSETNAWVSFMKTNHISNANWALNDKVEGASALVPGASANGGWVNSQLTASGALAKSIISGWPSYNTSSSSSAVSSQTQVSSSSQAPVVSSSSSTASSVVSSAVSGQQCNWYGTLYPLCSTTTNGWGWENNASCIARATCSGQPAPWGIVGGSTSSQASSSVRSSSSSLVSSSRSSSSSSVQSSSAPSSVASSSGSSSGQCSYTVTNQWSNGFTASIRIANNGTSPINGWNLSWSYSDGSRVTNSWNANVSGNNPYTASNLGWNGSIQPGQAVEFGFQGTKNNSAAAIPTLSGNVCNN
UniProt P56680, whole entry: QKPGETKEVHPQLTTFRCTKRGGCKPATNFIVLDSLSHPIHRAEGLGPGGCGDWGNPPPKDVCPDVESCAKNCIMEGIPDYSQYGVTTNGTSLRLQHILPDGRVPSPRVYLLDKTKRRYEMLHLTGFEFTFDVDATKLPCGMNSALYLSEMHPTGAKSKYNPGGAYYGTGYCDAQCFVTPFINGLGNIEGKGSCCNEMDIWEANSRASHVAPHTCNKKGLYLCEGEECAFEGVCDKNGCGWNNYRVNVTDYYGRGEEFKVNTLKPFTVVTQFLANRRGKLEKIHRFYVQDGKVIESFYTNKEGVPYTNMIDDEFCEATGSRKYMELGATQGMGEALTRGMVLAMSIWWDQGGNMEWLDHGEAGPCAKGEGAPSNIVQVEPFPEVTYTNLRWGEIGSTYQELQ
UniProt B3PD52, 40-468 limits assumed: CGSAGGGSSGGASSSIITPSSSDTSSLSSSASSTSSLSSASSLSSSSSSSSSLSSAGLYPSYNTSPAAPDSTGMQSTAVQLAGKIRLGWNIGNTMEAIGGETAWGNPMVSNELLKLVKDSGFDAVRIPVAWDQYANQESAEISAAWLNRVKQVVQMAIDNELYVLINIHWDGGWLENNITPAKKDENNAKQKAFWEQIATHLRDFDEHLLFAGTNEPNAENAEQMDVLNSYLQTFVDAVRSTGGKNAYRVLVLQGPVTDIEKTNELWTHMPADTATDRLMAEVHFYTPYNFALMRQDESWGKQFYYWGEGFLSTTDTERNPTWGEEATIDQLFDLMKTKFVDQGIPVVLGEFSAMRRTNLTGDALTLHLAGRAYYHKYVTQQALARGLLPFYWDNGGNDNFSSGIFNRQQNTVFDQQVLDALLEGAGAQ

Common to all, as to assay type: biochemical
In one assay the target is PpXG5 (Paenibacillus pabuli, UniProt H9KVH3). The assay is described as follows: irreversible inhibition kinetics. As to conditions: read-out: KI, covalent, active-site directed. The source says: irreversible inhibition kinetics on PpXG5
A further assay has as its target CjCel5B (Cellvibrio japonicus, UniProt B3PCS3). The assay is described as follows: irreversible inhibition kinetics. As to conditions: read-out: KI, covalent, active-site directed, crystal structure of complex also solved here. The source says:
irreversible inhibition kinetics on CjCel5B

Another assay has as its target HiCel7B (Mycothermus thermophilus, UniProt P56680). The assay is described as follows: irreversible inhibition kinetics. To be noted: read-out: KI, covalent, active-site directed. The text has this: irreversible inhibition kinetics on HiCel7B
In the next assay the target is CjCel5D; CjGH5D (Cellvibrio japonicus, UniProt B3PD52). The assay is described as follows: irreversible inhibition kinetics, residual activity on 6C4MU-XXXG. As to conditions: read-out: KI, covalent, active-site directed, crystal structure of complex also solved here. The text has this:
irreversible inhibition kinetics, residual activity on 6C4MU-XXXG on CjCel5D; CjGH5D

For the compound `[N-]=[N+]=NCCOCCOCCOCC(=O)N[C@H]1[C@H](O)[C@@H](O)[C@H](O[C@H]2[C@H](O)[C@@H](O)[C@@H]3O[C@@H]3[C@@H]2CO)O[C@@H]1CO[C@H]1OC[C@@H](O)[C@H](O)[C@H]1O`, the KI (inactivation) on PpXG5 is over 500 µM; on CjCel5B, over 250 µM; on HiCel7B it was 22 µM; on CjCel5D; CjGH5D it was over 500 µM.
